In assay [1] the target is T1, Acetylcholinesterase (Homo sapiens, UniProt P22303).
The target of assay [2] is T1, Acetylcholinesterase. The source holds these as a separate data set.

Sequences of proteins named here, by UniProt entry; tags and fusion partners are left off. A change or cut given only in a name is not applied to a line headed by its entry.
UniProt P22303: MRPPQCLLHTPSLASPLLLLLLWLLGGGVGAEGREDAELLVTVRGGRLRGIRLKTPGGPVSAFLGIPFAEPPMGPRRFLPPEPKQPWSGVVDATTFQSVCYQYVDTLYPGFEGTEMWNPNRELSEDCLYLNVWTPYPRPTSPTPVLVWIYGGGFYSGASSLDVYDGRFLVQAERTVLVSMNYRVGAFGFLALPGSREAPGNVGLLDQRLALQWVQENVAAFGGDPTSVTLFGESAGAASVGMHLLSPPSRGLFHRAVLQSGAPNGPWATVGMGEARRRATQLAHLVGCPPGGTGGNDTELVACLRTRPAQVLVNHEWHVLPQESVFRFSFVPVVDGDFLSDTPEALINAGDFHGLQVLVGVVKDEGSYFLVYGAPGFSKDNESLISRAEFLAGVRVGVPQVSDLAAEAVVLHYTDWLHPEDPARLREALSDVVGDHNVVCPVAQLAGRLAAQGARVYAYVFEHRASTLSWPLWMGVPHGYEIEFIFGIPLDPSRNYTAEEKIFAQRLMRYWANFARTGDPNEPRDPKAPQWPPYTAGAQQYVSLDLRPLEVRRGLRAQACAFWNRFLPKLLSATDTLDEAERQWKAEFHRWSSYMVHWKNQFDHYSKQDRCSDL

In turn, `CN1CC[C@@]2(C)c3cc(OC(=O)Nc4ccccc4)ccc3N(C)[C@@H]12` registered a logIC50 in assay [1] of 1.34.

For the molecule `CC(C)c1ccc(NC(=O)Oc2ccc3c(c2)[C@]2(C)CCN(C)[C@@H]2N3C)cc1` [4-ISOPROPYLPHENSERINE], the midpoint of inhibition in assay [2], the IC50, lay at 110 nM. For the same molecule, the logIC50 in assay [1] is 2.04.

The term IC50 denotes the concentration at which inhibition is half-maximal. The low end stands for higher potency, the high end for lower potency.
